Literature values in US7572808B2, “Triazolopyridine cannabinoid receptor 1 antagonists” (Bristol-Myers Squibb Company, priority 2005, dated 2009).

Conditions: chronic administration for two weeks

**Q.** With `Cc1c(C(=O)NN2CCCCC2)nn(-c2ccc(Cl)cc2Cl)c1-c1ccc(I)cc1` [AM-251] as the compound, how does the adipose tissue mass read?
**A.** decreased adipose tissue mass
